Key:
[1] = tested on: bitter impression of aqueous caffeine solution; experiment: Reducing bitterness of a bitter substance solution, rated by a panel of experts (caffeine); assay type: in vivo; settings: 500 ppm caffeine; for Bitter impression (1-10) with: error = 95% confidence range
Description: (§1) In order to quantify the reduction in the bitter impression, the bitterness of an aqueous bitter substance solution and a sample containing the same quantity of bitter substance and a varying quantity of the exemplary compound, was determined by a panel of experts (rating 0 [not bitter] to 10 [extremely bitter]). Evaluation took place by calculating the reduction (in %) in the bitter impression from the average values of the assessments of the bitter substance solution or the solutions containing bitter substance and exemplary compound. […] (2,4-DHB) was used as a comparison from U.S. Pat. No. 5,643,941.

[2] = tested on: bitter impression of aqueous quinine hydrochloride solution; experiment: Reducing bitterness of a bitter substance solution, rated by a panel of experts (quinine hydrochloride); assay type: in vivo; settings: 50 ppm substance, 5 ppm quinine hydrochloride
Description: as §1

[3] = substance concentration not given

Compound | % reduction in bitter impression [1, 3] | Tester positive (number of testers who were able to identify masking) ([1]; substance concentration not given, 15 testers total) | Bitter impression (1-10) with [1, 3] | % reduction in bitter impression ([1]; 50 ppm substance) | Tester positive (number of testers who were able to identify masking) ([1]; 50 ppm substance) | Bitter impression (1-10) with ([1]; 50 ppm substance) | % reduction in bitter impression [2] | Tester positive (number of testers who were able to identify masking) ([2]; 13 testers total) | Bitter impression (1-10) with ([2]; error = 95% confidence range)
COc1cc(CCC(=O)c2ccc(O)cc2O)ccc1O [Compound 6, 3-(4-hydroxy-3-methoxyphenyl)-1-(2,4-dihydroxyphenyl)propan-1-one] | 24%, n.s. | 11 | 3.3 ± 0.7 |  |  |  |  |  | 
COc1cc(CCC(=O)c2ccc(O)cc2)ccc1O [Compound 10, 3-(4-hydroxy-3-methoxyphenyl)-1-(4-hydroxyphenyl)propan-1-one] |  |  |  | 29%, p < 0.05 | 15 | 3.7 ± 0.8 | 34%, p < 0.1 | 11 | 2.4 ± 0.8

Reference: patent publication US8778987B2, “Use of 4-hydroxychalcone derivatives for masking an unpleasant taste” (Symrise AG, priority 2008, dated 2014)
